Results reported in ChEMBL document CHEMBL3085732, “Synthesis and pharmacological evaluation of aminothiazolomorphinans at the mu and kappa opioid receptors” (J Med Chem, 2013).

Species on record: Homo sapiens
Assay: Selectivity ratio of Ki for human mu opioid receptor to Ki for human kappa opioid receptor

With `Oc1ccc2c(c1)[C@@]13CCCC[C@H]1[C@@H](C2)N(CC1CCC1)CC3` [BUTORPHAN] the Ratio Ki was 2.9.
